This passage reports IC50 results from patent publication US6596687B1, “Cell adhesion inhibitors” (Biogen, Inc., priority 1995, dated 2003).

Chains of the proteins cited; added tags and fusions are not shown. Residues count along the entry.
UniProt P05556, 21-798 limits assumed: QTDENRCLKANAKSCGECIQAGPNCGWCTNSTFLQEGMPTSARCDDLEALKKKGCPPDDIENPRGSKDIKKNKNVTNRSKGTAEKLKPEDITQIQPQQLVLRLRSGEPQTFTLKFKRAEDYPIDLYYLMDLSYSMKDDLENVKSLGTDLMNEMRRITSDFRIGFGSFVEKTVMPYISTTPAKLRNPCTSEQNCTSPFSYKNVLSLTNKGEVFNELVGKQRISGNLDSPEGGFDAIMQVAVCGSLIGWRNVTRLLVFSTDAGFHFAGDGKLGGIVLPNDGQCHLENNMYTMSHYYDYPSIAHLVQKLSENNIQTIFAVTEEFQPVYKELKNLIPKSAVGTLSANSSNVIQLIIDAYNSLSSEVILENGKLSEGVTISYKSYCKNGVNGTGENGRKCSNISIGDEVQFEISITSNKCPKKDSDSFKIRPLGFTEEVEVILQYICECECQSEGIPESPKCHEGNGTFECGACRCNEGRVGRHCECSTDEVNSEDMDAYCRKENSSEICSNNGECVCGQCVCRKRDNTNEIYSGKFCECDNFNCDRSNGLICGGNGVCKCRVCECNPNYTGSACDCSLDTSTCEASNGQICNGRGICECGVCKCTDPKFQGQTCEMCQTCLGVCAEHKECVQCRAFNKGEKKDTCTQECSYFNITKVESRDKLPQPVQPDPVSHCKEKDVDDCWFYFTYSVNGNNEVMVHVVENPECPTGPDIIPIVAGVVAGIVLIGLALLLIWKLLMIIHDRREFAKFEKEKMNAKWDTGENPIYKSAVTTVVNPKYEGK
UniProt P13612, 34-1032 limits assumed: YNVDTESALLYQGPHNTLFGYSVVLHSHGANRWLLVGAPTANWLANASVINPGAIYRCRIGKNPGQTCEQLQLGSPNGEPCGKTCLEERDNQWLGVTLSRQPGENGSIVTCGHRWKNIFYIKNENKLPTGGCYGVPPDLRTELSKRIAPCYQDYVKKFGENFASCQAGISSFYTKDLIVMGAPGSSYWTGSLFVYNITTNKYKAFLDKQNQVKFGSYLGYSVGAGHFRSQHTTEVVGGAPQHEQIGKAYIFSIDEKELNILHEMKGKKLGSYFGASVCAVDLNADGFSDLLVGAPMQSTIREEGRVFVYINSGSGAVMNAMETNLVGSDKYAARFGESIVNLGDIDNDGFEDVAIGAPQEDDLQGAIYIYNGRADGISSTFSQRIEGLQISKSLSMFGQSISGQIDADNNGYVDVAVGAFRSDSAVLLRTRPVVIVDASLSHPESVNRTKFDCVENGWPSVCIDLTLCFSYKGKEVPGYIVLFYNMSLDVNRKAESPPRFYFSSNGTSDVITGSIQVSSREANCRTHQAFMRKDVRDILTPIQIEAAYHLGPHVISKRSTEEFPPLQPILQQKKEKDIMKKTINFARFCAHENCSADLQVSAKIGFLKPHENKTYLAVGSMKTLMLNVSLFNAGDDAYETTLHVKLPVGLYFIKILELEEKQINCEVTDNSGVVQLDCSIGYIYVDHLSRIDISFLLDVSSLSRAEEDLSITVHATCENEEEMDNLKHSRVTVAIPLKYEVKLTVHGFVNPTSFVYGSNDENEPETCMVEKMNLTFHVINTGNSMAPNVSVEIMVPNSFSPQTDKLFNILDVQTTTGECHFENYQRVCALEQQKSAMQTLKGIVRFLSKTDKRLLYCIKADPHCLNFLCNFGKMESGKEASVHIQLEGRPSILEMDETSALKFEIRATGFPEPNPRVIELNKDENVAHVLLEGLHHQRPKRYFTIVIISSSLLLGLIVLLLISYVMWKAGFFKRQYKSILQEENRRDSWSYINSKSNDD

Molecules are shown by their SMILES. A value given as a limit tells only on which side of the number the result lay.

This assay addresses VLA4 (Homo sapiens, UniProt P05556+P13612). Kind of assay: Inhibition of VLA4-dependent adhesion of Ramos cells to BSA-CS1. In kind it is cell-based. The conditions noted are these: BSA-CS1 coated wells, 2 mM MnCl2, 30 minutes at room temperature.
Regarding `CC[C@H](C)[C@H](NC(=O)Cc1ccc(NC(=O)Nc2ccccc2C)cc1)C(=O)N[C@@H](CC(=O)O)C(=O)N[C@@H](CCSC)C(N)=O`, the IC50 is less than 50 nM.

Compound `CC(C)C[C@H](NC(=O)c1cc2ccccc2cn1)C(=O)NC(CC(=O)NO)C(=O)N[C@H](C(=O)O)C(C)C` (stereo partly drawn) yielded an IC50 greater than 10000 nM. `CC(C)[C@H](NC(=O)[C@H](CC(=O)O)NC(=O)C(CC1CCCCC1)NC(=O)c1cc2ccccc2cn1)C(=O)O` (stereo partly drawn) came in with an IC50 greater than 10000 nM. The value for `CNC(=O)C(C)(C)NC(=O)[C@H](CC(=O)O)NC(=O)[C@H](CC(C)C)NC(=O)c1ccc2ccccc2n1` was greater than 10000 nM. The value for `COc1nc(CC(=O)NC(CC(C)C)C(=O)NC(CC(=O)O)C(=O)NC(C(=O)N2CCCC2C(N)=O)C(C)C)ccc1NC(=O)Nc1ccccc1C` (stereo not drawn) was less than 50 nM. Regarding `Cc1ccccc1NC(=O)Nc1ccc(CC(=O)N[C@@H](CC(C)C)C(=O)N[C@@H](CC(=O)O)C(=O)N[C@H](C(=O)N2CCC[C@H]2C(=O)N[C@@H](CO)C(=O)N[C@H](C(=O)O)[C@@H](C)O)C(C)C)cc1`, the IC50 is less than 50 nM.

With `CC[C@H](C)[C@H](NC(=O)Cc1ccc(NC(=O)Nc2ccccc2C)cc1)C(=O)N[C@@H](CC(=O)O)C(=O)N[C@H](C(N)=O)C(C)C`, the IC50 is less than 50 nM. In the case of `CC(C)CCC(=O)N[C@@H](CC(=O)O)C(=O)NCC1CCCCC1`, the IC50 was greater than 10000 nM. With `Cc1ccccc1NC(=O)Nc1ccc(CC(=O)N[C@@H](CO)C(=O)N[C@@H](CC(=O)O)C(=O)N[C@@H](CC(=O)O)C(N)=O)cc1`, the IC50 is less than 50 nM. Take `CC(C)C[C@H](NC(=O)Cc1ccccc1)C(=O)N[C@@H](CC(=O)O)C(=O)N1CCCCC1C(=O)NCC(=O)O` (stereo partly drawn): the IC50 is greater than 10000 nM. In turn, `CSCC[C@H](NC(=O)Cc1ccc(NC(=O)Nc2ccccc2C)cc1)C(=O)N[C@@H](CCC(=O)O)C(=O)N[C@@H](CC(=O)O)C(N)=O` showed an IC50 of less than 50 nM. On to `CC[C@H](C)[C@H](NC(=O)Cc1ccc(NC(=O)Nc2ccccc2C)cc1)C(=O)N[C@@H](CC(=O)O)C(=O)N[C@H](CC(N)=O)C(N)=O`, for which the IC50 was less than 50 nM. As to `Cc1ccccc1NC(=O)Nc1ccc(CC(=O)N[C@@H](CO)C(=O)N[C@@H](CC(=O)O)C(=O)N[C@H](C(N)=O)[C@@H](C)O)cc1`, the IC50 is less than 50 nM. The compound `CC[C@H](C)[C@H](NC(=O)Cc1ccc(NC(=O)Nc2ccccc2C)cc1)C(=O)N[C@@H](CC(=O)O)C(=O)N[C@H](C(N)=O)[C@@H](C)O` registered an IC50 of less than 50 nM. Take `CC[C@H](C)[C@H](NC(=O)Cc1ccc(NC(=O)Nc2ccccc2C)cc1)C(=O)N[C@@H](CC(=O)O)C(=O)N[C@H](CCC(=O)O)C(N)=O`: the IC50 was less than 50 nM. In turn, `CC[C@H](C)[C@H](NC(=O)[C@H](CC(=O)O)NC(=O)[C@@H](NC(=O)Cc1ccc(NC(=O)Nc2ccccc2C)cc1)[C@@H](C)CC)C(N)=O` had an IC50 of less than 50 nM. With `Cc1cccc(NC(=O)Nc2ccc(CC(=O)N[C@@H](CC(C)C)C(=O)N[C@@H](CC(=O)O)C(=O)N[C@H](C(=O)N3CCC[C@H]3C(=O)O)C(C)C)cc2)n1`, the 50% inhibitory concentration (IC50) was less than 50 nM. For the compound `Cc1ccccc1NC(=O)Nc1ccc(CC(=O)N[C@@H](CCC(N)=O)C(=O)N[C@@H](CC(=O)O)C(=O)N[C@H](CO)C(N)=O)cc1`, the IC50 was less than 50 nM. Compound `CSCC[C@H](NC(=O)[C@H](CC(=O)O)NC(=O)[C@H](CO)NC(=O)Cc1ccc(NC(=O)Nc2ccccc2C)cc1)C(N)=O` had an IC50 of less than 50 nM. `Cc1ccccc1NC(=O)Nc1ccc(CC(=O)N[C@@H](CO)C(=O)N[C@@H](CC(=O)O)C(=O)N[C@H](C(N)=O)C(C)C)cc1` had an IC50 of less than 50 nM. `Cc1ccccc1NC(=O)Nc1ccc(CC(=O)N2CCC[C@H]2C(=O)N[C@@H](CC(=O)O)C(=O)N[C@H](CO)C(N)=O)cc1` displayed an IC50 of less than 50 nM.

Compound `CC[C@H](C)[C@H](NC(=O)Cc1ccc(NC(=O)Nc2ccccc2C)cc1)C(=O)N[C@@H](CC(=O)O)C(=O)N[C@@H](Cc1c[nH]c2ccccc12)C(N)=O` returned an IC50 of less than 50 nM.

On to `CC(C)C[C@H](NC(=O)c1ccc2ccccc2n1)C(=O)N[C@@H](CC(=O)O)C(=O)N[C@H](C(N)=O)C(C)C`, for which the IC50 was greater than 10000 nM.

`Cc1ccccc1NC(=O)Nc1ccc(CC(=O)N[C@@H](CCC(N)=O)C(=O)N[C@@H](CC(=O)O)C(=O)N[C@H](CC(N)=O)C(N)=O)cc1`: the IC50 was less than 50 nM. Compound `CSCC[C@H](NC(=O)Cc1ccc(NC(=O)Nc2ccccc2C)cc1)C(=O)N[C@@H](CC(=O)O)C(=O)N[C@@H](Cc1c[nH]c2ccccc12)C(N)=O` came in with an IC50 of less than 50 nM. Consider `CC(C)C[C@H](NC(=O)c1cc2ccccc2cn1)C(=O)NC(Cc1nn[nH]n1)C(=O)N[C@H](C(=O)O)C(C)C` (stereo partly drawn), for which the IC50 was greater than 10000 nM.

With `Cc1ccccc1NC(=O)Nc1ccc(CC(=O)N[C@@H](CC(C)C)C(=O)N[C@@H](CC(=O)O)C(=O)N[C@H](C(=O)N2CCC[C@H]2C(=O)N[C@@H](CO)C(=O)O)C(C)C)cc1`, the IC50 is less than 50 nM. Consider `COC(=O)[C@@H](NC(=O)[C@H](CC(=O)O)N1CCC(NC(=O)OCc2ccccc2)C1=O)C(C)C` (stereo partly drawn), for which the IC50 is greater than 10000 nM. As to `CC[C@H](C)[C@H](NC(=O)Cc1ccc(NC(=O)Nc2ccccc2C)cc1)C(=O)N[C@@H](CC(=O)O)C(=O)N[C@@H](CC(C)C)C(N)=O`, the IC50 was less than 50 nM. Under `CCCC(NC(=O)Cc1ccccc1)C(=O)N[C@@H](CC(=O)O)C(=O)N[C@H](C(=O)NC)C(C)C` (stereo partly drawn) stands greater than 10000 nM; under `Cc1ccccc1NC(=O)Nc1ccc(CC(=O)N[C@H](C(=O)N[C@@H](CC(=O)O)C(=O)N[C@H](C(N)=O)[C@@H](C)O)[C@@H](C)O)cc1`, less than 50 nM; under `Cc1ccccc1NC(=O)Nc1ccc(CC(=O)N[C@@H](CCC(=O)O)C(=O)N[C@@H](CC(=O)O)C(=O)N[C@H](C(N)=O)C(C)C)cc1`, less than 50 nM. `CSCC[C@H](NC(=O)[C@H](CC(=O)O)NC(=O)[C@@H](NC(=O)Cc1ccc(NC(=O)Nc2ccccc2C)cc1)[C@@H](C)O)C(N)=O` gave an IC50 of less than 50 nM. In turn, `COc1nc(CC(=O)N[C@@H](CC(C)C)C(=O)N[C@@H](CC(=O)O)C(=O)N[C@H](C(=O)N2CCC[C@H]2C(=O)O)C(C)C)ccc1NC(=O)Nc1ccccc1C` displayed an IC50 of less than 50 nM. Compound `CC[C@H](C)[C@H](NC(=O)[C@H](CC(=O)O)NC(=O)[C@H](CCSC)NC(=O)Cc1ccc(NC(=O)Nc2ccccc2C)cc1)C(N)=O` gave a concentration for half-maximal inhibition (IC50) of less than 50 nM. With `CC(C)[C@H](NC(=O)[C@H](CC(=O)O)NC(=O)C(C)(C)NC(=O)c1cc2ccccc2cn1)C(=O)O`, the IC50 was greater than 10000 nM.

`CC[C@H](C)[C@H](NC(=O)[C@H](CC(=O)O)NC(=O)[C@H](CC(C)C)NC(=O)Cc1ccc(NC(=O)Nc2ccccc2C)cc1)C(N)=O` gave an IC50 of less than 50 nM. For `CC[C@H](C)[C@H](NC(=O)[C@H](CC(=O)O)NC(=O)[C@H](CO)NC(=O)Cc1ccc(NC(=O)Nc2ccccc2C)cc1)C(N)=O`, the IC50 was less than 50 nM. Under `Cc1ccccc1NC(=O)Nc1ccc(CC(=O)N[C@@H](CCC(=O)O)C(=O)N[C@@H](CC(=O)O)C(=O)N[C@@H](Cc2c[nH]c3ccccc23)C(N)=O)cc1` stands less than 50 nM.
